scFv variants of Ab-14 (heavy chain) against a SARS-CoV-2 spike peptide

The target is the same throughout: PDVDLGDISGINAS, from the HR2 region of SARS-CoV-2 spike.

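The library (AAYL49) carries one to three amino acid substitutions per variant, with no insertions or deletions. The assay is AlphaSeq: two haploid yeast populations carry antibody and antigen on their surface. After mating in shaken culture at 30 °C for 16 h, diploids were selected and their barcode pairs sequenced. Scores were corrected for input abundance and mapped to Kd with protein pairs of known affinity run in the same pool. Mating was done three times.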

Parent scFv Ab-14: VH joined to VL by a (GGGGS)3 linker. Changes lie in the heavy chain CDRs alone.
VH: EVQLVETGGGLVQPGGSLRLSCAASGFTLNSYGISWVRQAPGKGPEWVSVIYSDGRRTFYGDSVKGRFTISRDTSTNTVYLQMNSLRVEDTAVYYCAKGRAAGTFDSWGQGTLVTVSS
VL: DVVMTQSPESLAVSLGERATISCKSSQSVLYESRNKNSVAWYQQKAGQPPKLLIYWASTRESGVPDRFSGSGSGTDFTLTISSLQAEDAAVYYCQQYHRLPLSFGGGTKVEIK

Each variant is given by its three heavy chain CDRs, as the data file delimits them; those of the parent are GFTLNSYGIS, VIYSDGRRTFYGDSVK, GRAAGTFDS.
Values are log10 of the apparent Kd in nM; lower means stronger binding.
An entry "ND" has no value in the source: the pair was not observed among the diploids in that replicate. This suggests poor binding but is not conclusive.
Nonspecific signal, from three strains lacking the peptide, appeared in 15% of pairings of library AAYL49, centred on 4.06 (5% of these signals below 2.83); values are not corrected for it. Also given: how often the same scFv was detected with the empty control strains, with their mean in brackets.
In this assay the parent's reference entry averaged 0.65; its copy inside this library read 4.11 (one replicate of three).

CDR-H1	CDR-H2	CDR-H3	replicates, log10 nM	empty controls
GFTINSYGIS	VVYSDSRRTFYGDSVK	GRAAGTFDS	ND 3.46 5.41	4/9 (4.13)
HFTLNSYGIS	VIQSDGRTTFYGDSVK	GRAAGTFDS	4.59 ND 5.46	2/9 (5.08)
GFTLNSYGIS	VIYSDVNRTFYGDSVK	GRAAGEFDS	6.23 4.95 4.09	4/9 (4.55)
GFTLNSYGIF	VIYSDGRRTFYGDSHK	WRAAGTFDS	4.01 ND ND	1/9 (4.94)
GFDLNSDGIS	VIYSDGRRTFYGDSVK	GRAAKTFDS	ND ND ND	0/9
GFTLNSYGIS	VIYEDGRRTFYGDSVK	GRAVGTFDT	3.82 ND 3.41	4/9 (4.52)
GFTLNSYCIS	VIYSDGRRTFYGDSVL	GRAAGTFDS	4.46 ND ND	4/9 (4.50)
GWTLNSYGIS	VIYSPWRRTFYGDSVK	GRAAGTFDS	ND ND ND	2/9 (3.42)
GFCLNSYGIS	VIYSDGRRTFYGDSVK	GRRDGTFDS	4.70 3.21 4.69	3/9 (4.10)
GFNLNSYGIS	VPYSDGRRTFYGDSVK	GRAAGTFPS	ND ND ND	1/9 (4.79)
GFTLNCYGIS	VIYSDGRRTHYGDSVT	GRAAGTFDS	3.66 3.60 4.19	7/9 (4.16)
GFTLNTYGSS	VIYSDGRRTFYGDSVK	GRAQGTFDS	ND ND ND	0/9
GFTLNSYMIS	VIYSDGMRTFYGDGVK	GRAAGTFDS	ND 3.22 4.29	1/9 (5.29)
GFTLDSNGIS	VIYEDGRRTFYGDSVK	GRAAGTFDS	2.83 2.72 2.89	6/9 (5.21)
GFTLNSYHIS	VIFSDGRRTFYGDSVK	GRAAGTFDA	ND ND 4.18	1/9 (4.53)
GFTLNSYGIS	VIYSDGRRTFYGSSVK	GRTAMTFDS	ND ND ND	0/9
GGTLNSYGIS	VIYHDGRRTFYGDSVK	GRRAGTFDS	2.52 3.34 3.85	5/9 (4.24)
GFTLNSYGIS	VIYSYGMRTFYGDSVK	GRAAGTFDF	ND ND ND	0/9
GFTLNSYGIS	VIYSDGARTFYGDSAK	GRHAGTFDS	4.48 2.55 2.86	1/9 (4.33)
GFTPNSYGIS	VYYSDGRRTFYGDSVK	GRAAQTFDS	ND ND ND	2/9 (2.00)
HFTLNSYHIS	VIYSDGRRTFYGDSVK	GAAAGTFDS	ND ND 3.64	0/9
GFTLNNYGIS	VIYSDGRRTFRGDSVK	GRAAGQFDS	ND ND ND	1/9 (2.47)
PFTLNSYGIS	VIHSDGRRTFYGDSVK	GCAAGTFDS	ND ND ND	0/9
GRTLNSYGIS	VIYSDGRRTFYGYSVK	GRRAGTFDS	ND ND 4.05	2/9 (4.48)
GFTLNSYGIS	VIYSDGRREFYGDIVK	GRAAGTEDS	ND ND ND	0/9
GFTLNSFGIS	VIYSCGRRQFYGDSVK	GRAAGTFDS	ND ND ND	0/9
GFTLNSYGIS	RIYSDGRRTFYGDSVK	GRAAGCEDS	ND ND ND	1/9 (4.42)
GFTLNSYGIS	VIYSDGRCTWYGDSVK	GQAAGTFDS	ND 2.99 ND	3/9 (3.66)
GFTLNSYGIS	VIKSDGRRTFQGDSVK	GRAAGTFDA	ND ND ND	3/9 (3.97)
GFTLNSKGIF	VIYSDERRTFYGDSVK	GRAAGTFDS	ND ND ND	0/9
GFMLNSYGIS	TIYSDGRRTFYGDSVK	GRATGTFDS	ND 3.20 ND	1/9 (3.58)
GFTLNSHGIS	VIYSDGRRKFYGDSVK	GRAAGTFSS	4.98 ND ND	3/9 (4.03)
GFTLNSYGIS	VIYSWGRRTFYGDSVK	GRAAYTFWS	ND ND ND	3/9 (3.67)
GFPLNSYGIS	VIYSDGRRSFYGDSVM	GRAAGTFDS	1.79 2.25 1.87	1/9 (4.13)
GFTLNSYGIS	VIYSDTRRTFGGDSVK	GRWAGTFDS	4.80 ND ND	1/9 (3.82)
GFTLNSMGIS	VIYSDGHRTFYGDSVH	GRAAGTFDS	3.95 4.39 ND	0/9
GFTLWSYGIS	VIGSDGRRTFYGRSVK	GRAAGTFDS	ND ND ND	0/9
GFTLNSYGIS	VIYSDEHRTFYGDSVK	GRAAGTFDS	ND ND ND	0/9
YFTLNSYGIS	VIYSDGRRTFYGDSRK	GRAAGTFDG	ND ND ND	0/9
GFTLNSYKIS	VIHSDGRRTFYGDSVK	GRAAGTFDY	ND ND ND	0/9
GETLNSYGIS	VIYSDGRRHFYGMSVK	GRAAGTFDS	3.01 4.15 ND	1/9 (4.15)
FFTLNSYGIL	VIYSDGRRTFYGDSVK	GRAEGTFDS	ND ND ND	1/9 (3.60)
GFTLNSRGIS	VIYSDGNRTFYGHSVK	GRAAGTFDS	ND ND ND	0/9

Picked from the list: the 3 lowest averages where every replicate gave a value.

CDR-H1	CDR-H2	CDR-H3	replicates, log10 nM	empty controls
GFPLNSYGIS	VIYSDGRRSFYGDSVM	GRAAGTFDS	1.79 2.25 1.87	1/9 (4.13)
GFTLDSNGIS	VIYEDGRRTFYGDSVK	GRAAGTFDS	2.83 2.72 2.89	6/9 (5.21)
GGTLNSYGIS	VIYHDGRRTFYGDSVK	GRRAGTFDS	2.52 3.34 3.85	5/9 (4.24)

Source: Engelhart et al. 2022 (doi:10.1038/s41597-022-01779-4), MIT Lincoln Laboratory and A-Alpha Bio; data file from the FLAb repository.